Earlier results in patent US10335367B2, “Use of selected anticholinergic zwitterions” (Bodor Laboratories, Inc., priority 2015, dated 2019).

System: rabbit eyes
Details: topical administration; cited from earlier work

(±) 3-(2-cyclopentyl-2-phenyl-2-hydroxyacetoxy)-1-(carboxymethyl)-1-methylpyrrolidinium inner salt
mydriatic activity in rabbit eyes: even lower potency
